Broadly, the microsomal CLint is the capacity of the preparation to metabolise the compound, expressed as a volume cleared per time. A lower microsomal CLint goes with slow turnover.

Results on 1 molecule are retold here after paper PMC9127186, “Molecular Basis Underlying Hepatobiliary and Renal Excretion of Phenolic Acids of Salvia miltiorrhiza Roots (Danshen)” (Frontiers in Pharmacology, 2022).

Data set [1] addresses T1, rat Oatp1b2 (Rattus norvegicus, UniProt Q9QZX8).
T1 sequence (Q9QZX8 1-687): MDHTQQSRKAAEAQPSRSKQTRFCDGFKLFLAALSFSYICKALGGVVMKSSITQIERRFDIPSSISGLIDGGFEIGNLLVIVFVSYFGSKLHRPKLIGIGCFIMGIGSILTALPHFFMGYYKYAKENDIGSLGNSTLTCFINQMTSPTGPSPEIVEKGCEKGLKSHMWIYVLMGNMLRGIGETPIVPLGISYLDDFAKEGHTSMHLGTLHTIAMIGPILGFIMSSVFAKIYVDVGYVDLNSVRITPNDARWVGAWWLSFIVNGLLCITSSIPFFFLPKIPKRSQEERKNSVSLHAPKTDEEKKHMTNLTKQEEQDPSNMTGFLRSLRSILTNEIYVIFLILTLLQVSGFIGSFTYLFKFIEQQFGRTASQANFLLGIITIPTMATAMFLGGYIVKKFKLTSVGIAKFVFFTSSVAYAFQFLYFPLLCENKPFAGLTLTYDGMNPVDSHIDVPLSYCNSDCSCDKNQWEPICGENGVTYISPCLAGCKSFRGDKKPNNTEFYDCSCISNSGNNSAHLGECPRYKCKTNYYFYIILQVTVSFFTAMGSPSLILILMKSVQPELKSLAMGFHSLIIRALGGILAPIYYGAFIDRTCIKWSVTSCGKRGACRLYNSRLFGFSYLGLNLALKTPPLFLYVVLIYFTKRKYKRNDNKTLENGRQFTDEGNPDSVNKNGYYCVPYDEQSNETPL
Put plainly: Cellular transport assay, HEK-293 cells expressing rat Oatp1b2. The protocol:
(§1) Briefly, HEK-293 cells were grown, at 37°C and 5% CO2, in Dulbecco’s modified Eagle’s medium, which was fortified with 10% fetal bovine serum, 1% minimal essential medium nonessential amino acids, and 1% antibiotic-antimycotic solution. A day before transfection, cells were seeded onto 24-well poly-D-lysine-coated plates at a density of 2 × 10^5 cells per well. After incubation at 37°C and 5% CO2 for 24 h, the expression plasmid and the empty vector were introduced separately into the HEK293 cells with Lipofectamine 2000 transfection reagent (Invitrogen, Carlsbad, CA, United States), according to the manufacturer’s protocol to yield transporter-expressing cells and mock cells, respectively.
(§2) Transport studies were performed 48 h after the transfection. […] Differential uptake between the transfected cells and mock cells was defined as net transport ratio (TransportTC/TransportMC ratio), where TransportTC and TransportMC are the transport rates of a test Danshen compound into transfected and mock cells, respectively. […] The determination was performed under linear uptake conditions by incubation for 5 min. Table 1 summarizes the final concentrations of the test Danshen compounds for different transporters. All the incubation samples were analyzed by liquid chromatography/mass spectrometry. […]

Data set [2] has as its target T2, human OAT2 (Homo sapiens, UniProt Q9Y694).
T2 sequence (Q9Y694 1-546 isoform Q9Y694-2): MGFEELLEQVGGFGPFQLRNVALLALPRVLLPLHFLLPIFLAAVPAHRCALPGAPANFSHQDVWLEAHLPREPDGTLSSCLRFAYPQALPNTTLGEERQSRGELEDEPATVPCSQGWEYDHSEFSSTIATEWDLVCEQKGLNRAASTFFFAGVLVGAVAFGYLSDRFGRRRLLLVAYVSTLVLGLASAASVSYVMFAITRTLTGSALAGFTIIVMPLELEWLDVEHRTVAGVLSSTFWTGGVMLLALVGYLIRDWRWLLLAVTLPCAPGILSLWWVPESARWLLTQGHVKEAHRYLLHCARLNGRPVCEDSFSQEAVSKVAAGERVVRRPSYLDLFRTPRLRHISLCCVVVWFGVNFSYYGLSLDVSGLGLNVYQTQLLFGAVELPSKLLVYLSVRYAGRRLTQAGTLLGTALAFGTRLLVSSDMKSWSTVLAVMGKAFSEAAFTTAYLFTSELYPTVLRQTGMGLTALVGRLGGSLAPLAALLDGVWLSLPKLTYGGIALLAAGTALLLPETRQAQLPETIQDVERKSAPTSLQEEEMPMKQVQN
Put plainly: Cellular transport assay, HEK-293 cells expressing human OAT2. On the procedure: as §1, §2

Data set [3] concerns the target T3, rat Oat2 (Rattus norvegicus, UniProt Q5RLM2).
T3 sequence (Q5RLM2 1-535): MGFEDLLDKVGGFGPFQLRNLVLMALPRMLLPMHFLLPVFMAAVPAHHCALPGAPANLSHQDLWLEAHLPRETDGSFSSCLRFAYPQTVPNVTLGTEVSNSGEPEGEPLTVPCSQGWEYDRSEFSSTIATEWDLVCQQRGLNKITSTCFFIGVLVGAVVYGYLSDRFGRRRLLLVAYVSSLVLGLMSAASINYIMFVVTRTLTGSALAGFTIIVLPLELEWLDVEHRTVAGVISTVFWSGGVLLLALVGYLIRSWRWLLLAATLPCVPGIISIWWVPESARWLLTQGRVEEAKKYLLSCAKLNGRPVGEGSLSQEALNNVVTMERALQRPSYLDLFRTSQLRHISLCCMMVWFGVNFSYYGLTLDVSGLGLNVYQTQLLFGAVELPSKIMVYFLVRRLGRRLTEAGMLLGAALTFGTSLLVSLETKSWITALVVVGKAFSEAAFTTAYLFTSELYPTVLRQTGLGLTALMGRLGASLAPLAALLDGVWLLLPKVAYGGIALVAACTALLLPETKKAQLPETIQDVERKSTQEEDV
Put plainly: Cellular transport assay, HEK-293 cells expressing rat Oat2. On the procedure: as §1, §2

Data set [4] addresses T4, human OAT1 (Homo sapiens, UniProt Q4U2R8).
T4 sequence (Q4U2R8 1-563): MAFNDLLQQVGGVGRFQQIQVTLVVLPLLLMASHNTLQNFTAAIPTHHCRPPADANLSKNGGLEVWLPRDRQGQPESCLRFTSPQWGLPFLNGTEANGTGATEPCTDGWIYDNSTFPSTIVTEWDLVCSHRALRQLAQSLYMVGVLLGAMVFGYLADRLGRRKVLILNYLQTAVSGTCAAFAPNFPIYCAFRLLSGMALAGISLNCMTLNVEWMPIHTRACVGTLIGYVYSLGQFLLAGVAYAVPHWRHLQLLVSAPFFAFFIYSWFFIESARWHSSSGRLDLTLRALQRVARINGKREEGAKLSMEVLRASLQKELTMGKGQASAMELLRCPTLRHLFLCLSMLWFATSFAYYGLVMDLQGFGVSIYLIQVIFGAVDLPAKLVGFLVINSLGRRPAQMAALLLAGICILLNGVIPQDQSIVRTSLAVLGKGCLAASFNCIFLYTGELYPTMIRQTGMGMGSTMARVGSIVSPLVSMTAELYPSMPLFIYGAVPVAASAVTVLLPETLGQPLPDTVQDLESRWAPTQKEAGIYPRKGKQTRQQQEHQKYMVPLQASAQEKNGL
Put plainly: Cellular transport assay, HEK-293 cells expressing human OAT1. On the procedure: as §1, §2

Structures are written as SMILES.

Turning to `O=C(O)C(O)Cc1ccc(O)c(O)c1` (stereo not drawn) [Tanshinol, tanshinol], the “substrate of rat Oatp1b2” value in data set [1] is given as “neither protocatechuic acid nor tanshinol was a substrate”. For the same molecule, in data set [2], the “substrate of human OAT2” value is on record as “substrates”. Besides, the microsomal CLint in data set [2] (human, other cell line) was found to be 6.09 µL/min/mg; in data set [3] (rat, other cell line), 1.47 µL/min/mg. Besides, the “substrate of rat Oat2” value in data set [3] is given as “substrates”. Moreover, the “substrate of human OAT1” value in data set [4] was “substrates”.
